The entries are a selection whose mix differs from that of the whole data set. Some tests of the compounds listed are not included; inactive here does not mean inactive elsewhere. The source made the active and inactive calls. Cut-off read from the data, not from the text of the source: active = inhibition mostly above about 52% (no sharp cut-off); inactive = mostly below about 76%.

This is an account of results in PubChem BioAssay AID1986 (Sanford-Burnham Center for Chemical Genomics, 2009).

This experiment can be described thus: inhibitors of HIV fusion peptide binding, primary screen, biochemical, uHTS, fluorescence dequenching (AID 1986). The settings on record: HIV Env-mediated cell-cell fusion, fluorescence reporter; at 20 µM; hits give high values.
Take `Cc1ccc(C(=O)NCC2(N3CCCCC3)CCCCC2)cc1`: the inhibition (as a rule, the drop in the measured response relative to a control, in per cent) is inactive: 0.1%.

For the molecule `CC(C)N1C(=O)CC2(CCN(CCOC(=O)C(O)(c3ccccc3)c3ccccc3)CC2)C1=O`, the inhibition is inactive: -0.9%.

As to `CCN(CC)CC(C)C(C)OC(=O)C(O)(c1ccccc1)c1ccccc1` (centres undefined), the inhibition is inactive: -0.7%.

With `COc1cc(SC)ccc1C(=O)NCC1(N(C)C)CCCCC1`, the inhibition was inactive: 0%.

Consider `CN1[C@@H]2CC[C@H]1CC(OC(=O)C(O)(c1ccccc1)c1ccccc1)C2` (some centres undefined), for which the inhibition was inactive: 1%.

Turning to `O=C(NCC1(N2CCCCC2)CCCCC1)c1cc([N+](=O)[O-])ccc1Cl`, the inhibition was inactive: -2.3%.

`CCN1CCCC(OC(=O)C2(O)c3ccccc3C=Cc3ccccc32)C1` (centres undefined): the inhibition is inactive: 0%.

On to `Cc1cc(C(=O)NCC2(N3CCCCC3)CCCCC2)ccc1[N+](=O)[O-]`, for which the inhibition was inactive: -0.3%.

For the molecule `O=C(NCC1(N2CCCCC2)CCCCC1)c1cccc(Br)c1`, the inhibition is inactive: 1.1%.

As for `COc1ccc(C(=O)NCC2(N(C)C)CCCCC2)cc1`, the inhibition is inactive: -2.7%.

Take `C=CCN1CCN(CCOC(=O)C(O)(c2ccccc2)c2ccccc2)CC1`: the inhibition was inactive: 0.2%.

Regarding `O=C(NCC1(N2CCCCC2)CCCCC1)c1cc(F)c(F)cc1Cl`, the inhibition was inactive: 0.4%.

For the molecule `Cc1ccccc1C(=O)NCC1(N2CCCCC2)CCCCC1`, the inhibition was inactive: 2.9%.

Take `CN(C)c1ccc(C(=O)NCC2(N(C)C)CCCCC2)cc1`: the inhibition is inactive: 0.6%.

For the molecule `CN(C)C1CCCC1OC(=O)C(O)(c1ccccc1)c1ccccc1` (centres undefined), the inhibition is inactive: 1%.

As to `O=C(NCC1(N2CCCCC2)CCCCC1)c1cccc(Cl)c1`, the inhibition was inactive: -0.3%.

With `COc1cccc(C(=O)NCC2(N3CCCCC3)CCCCC2)c1`, the inhibition was inactive: -1.3%.

`COc1ccc(Cl)cc1C(=O)NCC1(N(C)C)CCCCC1`: the inhibition is inactive: 0.4%.

Turning to `COc1cc(C(=O)NCC2(N(C)C)CCCCC2)c([N+](=O)[O-])cc1OC`, the inhibition was inactive: -1.4%.

With `CN(C)C1(CNC(=O)c2ccc(Br)cc2)CCCCC1`, the inhibition was inactive: -1.5%.

Consider `CN(C)c1cccc(C(=O)NCC2(N(C)C)CCCCC2)c1`, for which the inhibition is inactive: -2.2%.

Regarding `CC(C)Oc1ccc(C(=O)NCC2(N(C)C)CCCCC2)cc1`, the inhibition is inactive: -1.8%.

For the molecule `COc1ccc(Br)c(C(=O)NCC2(N3CCCCC3)CCCCC2)c1`, the inhibition was inactive: 3.7%.

As for `O=C(OC1CN2CCC1CC2)C(CO)(c1ccccc1)c1ccccc1` (centres undefined), the inhibition was inactive: 1.8%.
